Laboratory results published in patent publication US6372772B1, “Inhibitors of redox signaling and methods of using same” (Prolx Pharmaceuticals Corporation, priority 1997, dated 2002).

By UniProt entry, the sequences of proteins in these tests, tags left out. Where a name states a change or a piece, a line headed by the entry shows the natural chain unless it says otherwise.
UniProt Q16881, whole entry, looked up: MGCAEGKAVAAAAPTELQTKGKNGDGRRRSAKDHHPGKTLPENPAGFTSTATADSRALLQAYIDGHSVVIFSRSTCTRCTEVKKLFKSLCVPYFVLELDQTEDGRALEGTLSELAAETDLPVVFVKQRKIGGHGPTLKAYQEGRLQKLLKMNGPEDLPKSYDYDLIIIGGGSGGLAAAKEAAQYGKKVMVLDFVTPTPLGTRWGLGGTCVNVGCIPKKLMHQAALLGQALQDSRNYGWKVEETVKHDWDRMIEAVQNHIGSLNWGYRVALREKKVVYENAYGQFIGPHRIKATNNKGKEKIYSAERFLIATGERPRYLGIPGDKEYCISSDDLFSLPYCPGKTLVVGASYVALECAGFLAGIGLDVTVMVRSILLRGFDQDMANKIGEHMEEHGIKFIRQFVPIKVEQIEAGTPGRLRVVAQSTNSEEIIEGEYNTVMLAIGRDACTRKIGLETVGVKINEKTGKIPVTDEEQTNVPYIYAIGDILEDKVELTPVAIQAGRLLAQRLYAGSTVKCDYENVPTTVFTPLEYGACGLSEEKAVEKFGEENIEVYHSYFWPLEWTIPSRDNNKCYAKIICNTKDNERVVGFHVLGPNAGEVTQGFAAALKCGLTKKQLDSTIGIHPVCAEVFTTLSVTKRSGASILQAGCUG
UniProt P00390: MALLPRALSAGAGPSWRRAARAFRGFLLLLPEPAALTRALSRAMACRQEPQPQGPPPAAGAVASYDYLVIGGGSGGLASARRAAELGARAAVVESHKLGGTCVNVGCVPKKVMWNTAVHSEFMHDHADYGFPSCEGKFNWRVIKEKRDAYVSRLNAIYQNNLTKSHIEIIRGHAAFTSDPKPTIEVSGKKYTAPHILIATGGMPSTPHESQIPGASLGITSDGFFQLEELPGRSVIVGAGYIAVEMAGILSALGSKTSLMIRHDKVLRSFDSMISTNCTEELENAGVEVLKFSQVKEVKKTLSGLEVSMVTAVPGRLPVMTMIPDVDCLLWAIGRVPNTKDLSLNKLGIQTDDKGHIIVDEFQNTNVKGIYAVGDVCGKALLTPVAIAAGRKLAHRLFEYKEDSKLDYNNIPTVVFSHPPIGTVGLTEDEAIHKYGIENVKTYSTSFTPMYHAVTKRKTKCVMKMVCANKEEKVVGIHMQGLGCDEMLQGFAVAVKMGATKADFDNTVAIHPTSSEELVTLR

What was measured:
[1] = system: NCI's panel of 60 human cancer cell lines; details: mean 50% growth inhibition concentration, entire cell line panel; cited from earlier work
[2] = biological target: thioredoxin reductase/thioredoxin (Homo sapiens, UniProt Q16881); assay: thioredoxin reductase/thioredoxin-dependent insulin reduction assay; format: biochemical
thioredoxin reductase = thioredoxin reductase (Homo sapiens, UniProt Q16881); assay: thioredoxin reductase assay (DTNB reduction); details: ratio of IC50 glutathione reductase to IC50 thioredoxin reductase
glutathione reductase = glutathione reductase (Homo sapiens, UniProt P00390); assay: glutathione reductase assay (DTNB reduction); format: biochemical; details: Table II
leukemia cell line = details: mean 50% growth inhibition concentration; cited from earlier work

In the case of `Cn1c(=O)c([N+](=O)[O-])c(N=[N+]=[N-])c2ccccc21`, the “GI50 (μg/ml) All Tumors” value [1] is given as 0.7 µg/mL (≈ 2.85 µM), the “IC50 (μg/ml) in TR/Trx Assay” value ([2]; Table I, 30 min preincubation) is given as 0.49 µg/mL (≈ 2 µM) and the “IC50TRTrx” value ([2]; Table II) is given as 0.49 mg/L (≈ 2 µM). For the same compound, the “in vitro IC50 TR/Trx (μg/ml)” value ([2]; Table III) was “≦0.5 μg/ml”, the TR/TRTrx ([2]; ratio of IC50 TR alone and IC50 TR/Trx assay) was 0.2 and the GR/TR (thioredoxin reductase) was 330. For the same compound, the “IC50GR” value (glutathione reductase) was 33 mg/L (≈ 135 µM) and the “GI50 (μg/ml) Leukemias” value (leukemia cell line) was 0.2 µg/mL (≈ 0.816 µM).

Values after ≈ are worked out from the molar mass of the structure shown.
